Laboratory results: publication PMC6204601, “In Vivo Selectivity and Localization of Reactive Oxygen Species (ROS) Induction by Osmium Anticancer Complexes That Circumvent Platinum Resistance” (Journal of Medicinal Chemistry, 2018)

Key:
[1] = test system: Tubingen wild-type zebrafish embryos; test: Zebrafish embryo toxicity (FET) test, TU-WT; details: read-out: LC50 (Danio rerio) TU-WT, 96 h exposure
[2] = test system: AB wild-type zebrafish embryos; details: read-out: LC50 (Danio rerio) AB-WT, 96 h exposure
[3] = test system: Singapore wild-type zebrafish embryos; details: read-out: LC50 (Danio rerio) SG-WT, 96 h exposure

Molecule	LC50 [1]	LC50 [2]	LC50 [3]
Cc1ccc(C(C)C)cc1.[NH-]C(c1ccccc1)C([N-]S(=O)(=O)c1ccc([N+](=O)[O-])cc1)c1ccccc1.[Os+2] (stereo not drawn) [Complex 3, [Os(p-cymene)(Ns-DPEN)]]	2200 ± 300 nM		
Cc1ccc(C(C)C)cc1.O=S(=O)(c1ccccc1)[N]1[Os][NH][C@H](c2ccccc2)[C@H]1c1ccccc1 [Complex 5, [Os(p-cymene)(Bs-DPEN)]]		3.1 ± 0.3 µM	
Cc1ccc(S(=O)(=O)[N]2[Os][NH][C@H](c3ccccc3)[C@H]2c2ccccc2)cc1.c1ccc(-c2ccccc2)cc1 [Complex 7, [Os(biphenyl)(Ts-DPEN)]]			2200 ± 200 nM
[Os(p-cymene)(SRB-DPEN)] [Complex 6]	3100 ± 100 nM	4 ± 0.1 µM	2200 ± 100 nM
